Data: ChEMBL document CHEMBL1811912, “Human HDAC isoform selectivity achieved via exploitation of the acetate release channel with structurally unique small molecule inhibitors” (Bioorg Med Chem, 2011)

Target: T1, Histone deacetylase 8 (Homo sapiens, UniProt Q9BY41)
T1 sequence (Q9BY41 whole entry): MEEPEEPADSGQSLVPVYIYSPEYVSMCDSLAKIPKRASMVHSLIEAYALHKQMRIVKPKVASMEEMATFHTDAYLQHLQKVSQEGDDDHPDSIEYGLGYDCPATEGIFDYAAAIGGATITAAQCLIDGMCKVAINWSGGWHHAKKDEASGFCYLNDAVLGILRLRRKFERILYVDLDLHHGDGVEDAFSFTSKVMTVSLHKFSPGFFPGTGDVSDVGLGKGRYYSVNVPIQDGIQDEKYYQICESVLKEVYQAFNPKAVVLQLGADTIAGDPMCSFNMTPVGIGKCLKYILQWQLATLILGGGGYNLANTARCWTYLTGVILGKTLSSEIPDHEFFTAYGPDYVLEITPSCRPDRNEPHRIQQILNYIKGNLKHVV
Experiment: Inhibition of N terminal hexahistidine-tagged human HDAC8 expressed in Sf9 cells after 1 hr by fluorescence assay

## N[C@H](Cc1ccc(Cl)cc1Cl)C(=O)N1Cc2ccccc2C1
  IC50: 90 nM
